Values quoted from earlier work as cited in patent US20110295006A1, “CYCLIC DIPEPTIDES AS FEED ADDITIVES” (EVONIK DEGUSSA GMBH, priority 2010, published 2011).

Details: Baker et al. 1982; cited from earlier work

poly-L-methionine
solubility in water: absolute insolubility
